Results as given in US20240336574A1 (LATIGO BIOTHERAPEUTICS, INC., priority 2021, published 2024).

Sequences of proteins named here, by UniProt entry; tags and fusion partners are left off.
UniProt Q9Y5Y9, whole entry: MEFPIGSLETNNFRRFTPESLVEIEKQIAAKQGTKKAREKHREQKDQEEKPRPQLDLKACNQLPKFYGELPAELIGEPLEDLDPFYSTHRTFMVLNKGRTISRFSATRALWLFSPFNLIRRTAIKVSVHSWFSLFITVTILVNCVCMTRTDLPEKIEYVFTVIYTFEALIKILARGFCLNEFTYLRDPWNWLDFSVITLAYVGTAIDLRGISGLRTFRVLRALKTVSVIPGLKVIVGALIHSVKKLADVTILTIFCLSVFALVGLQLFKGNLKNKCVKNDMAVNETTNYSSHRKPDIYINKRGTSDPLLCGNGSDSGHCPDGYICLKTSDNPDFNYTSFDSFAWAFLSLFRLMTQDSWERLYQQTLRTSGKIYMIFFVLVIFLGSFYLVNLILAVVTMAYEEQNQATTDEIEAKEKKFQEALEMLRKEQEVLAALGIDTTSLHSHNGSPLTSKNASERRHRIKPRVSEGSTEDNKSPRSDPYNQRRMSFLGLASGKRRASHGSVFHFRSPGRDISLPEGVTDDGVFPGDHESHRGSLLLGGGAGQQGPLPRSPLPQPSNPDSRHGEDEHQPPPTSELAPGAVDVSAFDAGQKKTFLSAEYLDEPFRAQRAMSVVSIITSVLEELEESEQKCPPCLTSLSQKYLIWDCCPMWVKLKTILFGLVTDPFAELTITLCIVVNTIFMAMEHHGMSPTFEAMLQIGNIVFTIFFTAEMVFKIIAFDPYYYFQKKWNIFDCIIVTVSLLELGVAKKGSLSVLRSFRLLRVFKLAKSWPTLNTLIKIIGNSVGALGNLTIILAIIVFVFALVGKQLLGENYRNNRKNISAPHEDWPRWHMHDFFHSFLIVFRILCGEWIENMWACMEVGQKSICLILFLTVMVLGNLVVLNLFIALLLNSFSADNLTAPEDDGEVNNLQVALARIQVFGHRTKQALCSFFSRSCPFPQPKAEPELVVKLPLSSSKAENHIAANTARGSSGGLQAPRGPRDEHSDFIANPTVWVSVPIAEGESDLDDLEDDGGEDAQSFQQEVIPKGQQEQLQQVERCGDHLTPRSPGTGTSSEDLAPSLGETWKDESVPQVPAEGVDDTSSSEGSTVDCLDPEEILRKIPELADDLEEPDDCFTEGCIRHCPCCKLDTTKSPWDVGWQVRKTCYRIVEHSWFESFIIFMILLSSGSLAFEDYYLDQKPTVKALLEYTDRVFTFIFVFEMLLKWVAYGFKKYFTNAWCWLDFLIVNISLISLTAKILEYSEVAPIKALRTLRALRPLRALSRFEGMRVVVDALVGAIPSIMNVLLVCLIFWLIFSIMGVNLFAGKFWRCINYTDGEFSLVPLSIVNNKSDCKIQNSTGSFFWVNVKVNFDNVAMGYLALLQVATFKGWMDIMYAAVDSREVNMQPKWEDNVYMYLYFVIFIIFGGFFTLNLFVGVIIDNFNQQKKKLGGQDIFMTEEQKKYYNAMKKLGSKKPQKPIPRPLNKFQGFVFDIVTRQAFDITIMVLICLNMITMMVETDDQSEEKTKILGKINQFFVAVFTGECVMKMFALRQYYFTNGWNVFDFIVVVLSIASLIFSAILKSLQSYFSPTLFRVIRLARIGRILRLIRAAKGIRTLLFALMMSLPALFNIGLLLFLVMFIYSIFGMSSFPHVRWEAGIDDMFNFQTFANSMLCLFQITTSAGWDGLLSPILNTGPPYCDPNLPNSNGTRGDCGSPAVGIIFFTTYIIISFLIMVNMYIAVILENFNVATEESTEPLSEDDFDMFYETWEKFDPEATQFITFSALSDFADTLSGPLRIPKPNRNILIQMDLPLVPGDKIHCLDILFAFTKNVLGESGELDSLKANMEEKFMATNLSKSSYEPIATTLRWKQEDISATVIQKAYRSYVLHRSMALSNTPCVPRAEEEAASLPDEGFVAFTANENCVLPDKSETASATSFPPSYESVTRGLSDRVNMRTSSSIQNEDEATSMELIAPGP

Target: recombinant human NaV1.8 stably transfected HEK cells (Homo sapiens, UniProt Q9Y5Y9)
Assay: Compound profiling on NaV1.8, human NaV1.8 cell line, SyncroPatch384PE automated patch clamp assay (Example 102, first set of compounds, Table 16)
Protocol: Compound Profiling on NaV1.8—Human NaV1.8 Cell Line—SyncroPatch384PE Assay
Compounds were tested on recombinant human NaV1.8 stably transfected HEK cells using the SyncroPatch384PE system, an automated patch clamp device. Cells were cultured at 37° C./5% CO2 in DMEM medium supplemented with GlutaMAX I, NEAA 1%, FBS 10% and seeded in T175 flasks. Cells were cultured at 30° C. one day prior to recording sodium currents. On the day of the recordings, cells were detached with 0.05% Trypsin-EDTA, resuspended in serum free DMEM medium and placed into the SyncroPatch384PE 6° C. pre-cooled cell hotel and shaken at 200 rpm. Intracellular solution (IC) contained, in mM: 10, CsCl; 110, CsF; 20, EGTA; 10, HEPES. Extracellular solution (EC) contained, in mM: 140, NaCl; 4, KCl; 5, Glucose; 10, HEPES; 2, CaCl2; 1, MgCl2. Washing solution contained, in mM: 40, NMDG; 100, NaCl; 4, KCl; 10, Glucose; 10, HEPES; 5, CaCl2; 1, MgCl2.
Compounds were tested in triplicate in 0.1% DMSO and 0.030% Pluronic Acid. […] Compounds were then applied by the SynchroPatch into each well and the current was recorded for five minutes in EC, followed by application of tetracaine to achieve full block at the end of the experiment. The potency of the compounds was assessed on two read-outs, resting state block (P1 measurement) or inactivated state block (P2 measurement) to obtain IC50 values. […]

Q: How did the IC50 (read-out: P1IC50, resting state block (P1 measurement), human NaV1.8 HEK cells, Table 16 (first set of compounds)) turn out when `COc1c(Oc2ncc(Br)cc2C(=O)Nc2ccc(C(N)=O)cc2)ccc(F)c1F` [Compound 1569, 5-bromo-N-(4-carbamoylphenyl)-2-(3,4-difluoro-2-methoxy-phenoxy)pyridine-3-carboxamide] was run?
A: < 20 nM

Q: And the IC50 (read-out: P2IC50, inactivated state block (P2 measurement), human NaV1.8 HEK cells, Table 16 (first set of compounds))?
A: < 20 nM

Where two headings read alike, the source gives them in different places.
